## Binding of CDR-mutated scFvs to a peptide of the spike HR2 region

Reference: Li et al. 2023, doi:10.1038/s41467-023-39022-2. File: FLAb, binding data.

All variants were tested on one target, the spike HR2 peptide PDVDLGDISGINAS (SARS-CoV-2).

Ab-14 is the parent antibody, in scFv form: VH, then a 15-residue (Gly4Ser)3 linker, then VL. The heavy chain is unchanged in all variants.
VH: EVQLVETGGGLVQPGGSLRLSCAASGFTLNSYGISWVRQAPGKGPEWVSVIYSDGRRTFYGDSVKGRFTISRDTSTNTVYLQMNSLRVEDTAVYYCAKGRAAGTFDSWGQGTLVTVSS
VL: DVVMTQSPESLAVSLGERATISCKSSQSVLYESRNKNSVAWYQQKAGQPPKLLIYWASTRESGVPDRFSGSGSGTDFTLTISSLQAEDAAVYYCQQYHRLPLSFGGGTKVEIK

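These sequences belong to a second round, designed from the earlier measurements on random variants of the parent. Group labels follow the data file (En: ensemble of fine-tuned language models; GP: Gaussian process model; HC: hill climbing; Gen: genetic algorithm; Gibbs: Gibbs sampling; a sequence that several methods proposed may carry one label only). In AlphaSeq, yeast of one mating type display the scFv and yeast of the other type display the target. Binding brings cells together so that they mate, and sequencing counts the barcode pairs among the diploids. A regression on co-assayed BCL2-family reference pairs converts the normalised counts of each replicate to an apparent Kd. The assay was run in six technical replicates.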

Each variant's VL is given in full.
Variants here have more than six changes.
Affinities are written as log10 Kd with Kd in nM; a lower number is a better binder.
A mean of the replicates is given; it leaves out those without a signal.

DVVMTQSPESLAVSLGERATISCIVSQLMLWGYHAKNSIAWYQQKAGQPPKLLIYEAVTRYNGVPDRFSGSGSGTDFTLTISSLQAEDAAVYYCQQYDRLPLFFGGGTKVEIK [En_Gen]: 0.85 (6 of 6 replicates).
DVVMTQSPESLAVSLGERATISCALHAQNLQNMDNLNSIAWYQQKAGQPPKLLIYEQNQTQEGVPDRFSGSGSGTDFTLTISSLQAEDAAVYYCQQYFRLPFAFGGGTKVEIK [En_Gibbs]: 2.01 (6 of 6 replicates).
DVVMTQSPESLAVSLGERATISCMISQVMNTLTRQGNNVAWYQQKAGQPPKLLIYDLAEREDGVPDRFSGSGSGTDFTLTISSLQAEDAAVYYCQQYFRLPLSFGGGTKVEIK [En_Gen]: 0.38 (6 of 6 replicates).
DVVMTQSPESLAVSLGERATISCNMGGTKEEQSNEINNIAWYQQKAGQPPKLLIYEMNERFAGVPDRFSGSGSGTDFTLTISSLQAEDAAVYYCQQYFQLPLSFGGGTKVEIK [En_Gibbs]: 1.25 (6 of 6 replicates).
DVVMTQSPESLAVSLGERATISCTISEMLHVPGKNRNSVAWYQQKAGQPPKLLIYELSTRSNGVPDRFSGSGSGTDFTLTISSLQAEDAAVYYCQQYDRLPLSFGGGTKVEIK [En_Gen]: 0.71 (6 of 6 replicates).
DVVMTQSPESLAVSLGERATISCTISQSWFVESKNKNNVAWYQQKAGQPPKLLIYEMSTRENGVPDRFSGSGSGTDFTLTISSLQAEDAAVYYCQDYDRLPLSFGGGTKVEIK [En_HC]: 1.20 (5 of 6 replicates).
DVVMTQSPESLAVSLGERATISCKISQMIRVGSTHSNSIAWYQQKAGQPPKLLIYEEATRSKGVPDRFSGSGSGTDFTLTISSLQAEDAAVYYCQQYHRLPLAFGGGTKVEIK [En_Gen]: 1.09 (4 of 6 replicates).
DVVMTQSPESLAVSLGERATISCIVSQLMMWGLHAKNSIAWYQQKAGQPPKLLIYEAVTRYNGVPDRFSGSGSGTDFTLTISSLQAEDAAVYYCQQYDRLPLFFGGGTKVEIK [En_Gen]: 1.18 (1 of 6 replicates).
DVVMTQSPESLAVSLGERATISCMISQLWNMGQFAINSVAWYQQKAGQPPKLLIYQASLRCNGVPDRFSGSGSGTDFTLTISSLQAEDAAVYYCQQYDRLPLEFGGGTKVEIK [En_Gen]: 2.57 (3 of 6 replicates).
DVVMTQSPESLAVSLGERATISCVFQDQWDGHTNTHNSVAWYQQKAGQPPKLLIYNVDEKMEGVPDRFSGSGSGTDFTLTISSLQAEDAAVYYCQQYYRLPLLFGGGTKVEIK [En_Gibbs]: -0.09 (6 of 6 replicates).
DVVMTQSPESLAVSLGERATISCKIGLVTNGISFAKNSVAWYQQKAGQPPKLLIYEQSTRENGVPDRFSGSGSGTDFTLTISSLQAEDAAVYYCQQYDRLPLSFGGGTKVEIK [En_HC]: 1.05 (6 of 6 replicates).
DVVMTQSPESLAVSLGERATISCMIEEDNAGEQKNSSNIAWYQQKAGQPPKLLIYSQDQKEDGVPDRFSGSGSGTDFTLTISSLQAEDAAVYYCQQYQRLPLIFGGGTKVEIK [En_Gibbs]: 1.63 (5 of 6 replicates).
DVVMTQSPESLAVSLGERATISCMISQLMNMGTFHINSVAWYQQKAGQPPKLLIYQAQTRNEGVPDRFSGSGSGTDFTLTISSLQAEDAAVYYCQQYDRLPLTFGGGTKVEIK [En_Gen]: 1.66 (5 of 6 replicates).
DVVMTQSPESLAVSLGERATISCTISQLTSSFSQNINNVAWYQQKAGQPPKLLIYEVSTRLKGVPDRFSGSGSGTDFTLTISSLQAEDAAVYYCQQYDRLPLAFGGGTKVEIK [En_Gen]: 0.68 (6 of 6 replicates).
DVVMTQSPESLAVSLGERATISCKLSMLWLGESRNHNSVAWYQQKAGQPPKLLIYSANTRESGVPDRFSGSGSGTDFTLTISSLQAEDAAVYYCQQYHRLPLSFGGGTKVEIK [GP_Gibbs]: 0.18 (6 of 6 replicates).
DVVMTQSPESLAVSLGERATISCKLASVTGTEKVRGNNVAWYQQKAGQPPKLLIYEMETRERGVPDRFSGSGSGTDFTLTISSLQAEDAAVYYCQQYNRLPLSFGGGTKVEIK [En_Gen]: 0.53 (6 of 6 replicates).
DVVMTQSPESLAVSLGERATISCMLTGAPFVGDRDKQSIAWYQQKAGQPPKLLIYANEVRMMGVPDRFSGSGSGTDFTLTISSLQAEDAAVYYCQQYYQLPLCFGGGTKVEIK [En_Gibbs]: 0.82 (6 of 6 replicates).
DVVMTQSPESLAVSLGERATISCKLQQSVCMESRNKNSVAWYQQKAGQPPKLLIYNASKREEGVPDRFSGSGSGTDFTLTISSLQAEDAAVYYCQQYHRLPLSFGGGTKVEIK [GP_Gibbs]: 0.79 (6 of 6 replicates).
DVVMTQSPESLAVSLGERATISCMLVGPDEMEQHNWQSVAWYQQKAGQPPKLLIYSAEALAMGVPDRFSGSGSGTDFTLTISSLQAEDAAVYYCQQYFRLPLSFGGGTKVEIK [En_Gibbs]: 2.00 (2 of 6 replicates).
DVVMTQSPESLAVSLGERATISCHLSFPWQSGHDSTNAVAWYQQKAGQPPKLLIYNDSTLMTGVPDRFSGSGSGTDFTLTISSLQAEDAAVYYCQSYNRLPLSFGGGTKVEIK [En_Gibbs]: 2.08 (3 of 6 replicates).
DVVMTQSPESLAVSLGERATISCKVMQSVNGLQRAKNSVAWYQQKAGQPPKLLIYEASTRESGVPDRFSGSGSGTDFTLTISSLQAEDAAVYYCQQYHRLPLSFGGGTKVEIK [GP_Gibbs]: 0.42 (6 of 6 replicates).

The last 3 entries again:

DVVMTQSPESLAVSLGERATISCMLVGPDEMEQHNWQSVAWYQQKAGQPPKLLIYSAEALAMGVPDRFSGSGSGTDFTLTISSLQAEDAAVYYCQQYFRLPLSFGGGTKVEIK [En_Gibbs]: 2.00 (2 of 6 replicates).
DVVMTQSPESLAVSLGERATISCHLSFPWQSGHDSTNAVAWYQQKAGQPPKLLIYNDSTLMTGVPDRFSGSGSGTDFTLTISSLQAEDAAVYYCQSYNRLPLSFGGGTKVEIK [En_Gibbs]: 2.08 (3 of 6 replicates).
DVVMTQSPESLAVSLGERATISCKVMQSVNGLQRAKNSVAWYQQKAGQPPKLLIYEASTRESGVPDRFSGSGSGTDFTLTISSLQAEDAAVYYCQQYHRLPLSFGGGTKVEIK [GP_Gibbs]: 0.42 (6 of 6 replicates).

Background: pairings of all light chain designs with three empty control strains gave a value in 4% of cases (median 2.64, 5th percentile 1.59). Values in that range, when seen in few replicates, are hard to tell from nonspecific mating.
The authors averaged sequences with at least three values out of six and counted those with two or fewer as poor binders.
A sequence measured in both rounds can read differently, since the two assays cover different ranges.